Results published in ChEMBL document CHEMBL3886164, “Bicyclic heterocycle compounds and their uses in therapy” (2015).

Biological target: Baculoviral IAP repeat-containing protein 2 (Homo sapiens, UniProt Q13490)
Experiment: In Vitro Competitive Displacement Binding Assay: Modified SMAC peptides and compounds were tested for their ability to displace the fluorescent tracer from either XIAP, cIAP-1 or cIAP-2. BIR3 domains of cIAP-1, cIAP-2 and XIAP were incubated with test compounds or SMAC based peptides and their respective peptide probes (Peptide Protein Research) in assay buffer (50 mM Hepes pH 7.5, 0.025% …

CCC1(CC)Oc2nc(NC(=O)[C@@H](C)NC)ccc2N(c2ccc(Cl)cc2)C1=O
IC50: in the range around 505 nM
